IC50, EC50 and pKa data for 38 compounds are collected here from publication PMC6504873, “High-throughput screening of the Plasmodium falciparum cGMP-dependent protein kinase identified a thiazole scaffold which kills erythrocytic and sexual stage parasites” (Scientific Reports, 2019).

The chains behind the UniProt entries cited, without tags or fusion partners.
UniProt Q96GD4, whole entry: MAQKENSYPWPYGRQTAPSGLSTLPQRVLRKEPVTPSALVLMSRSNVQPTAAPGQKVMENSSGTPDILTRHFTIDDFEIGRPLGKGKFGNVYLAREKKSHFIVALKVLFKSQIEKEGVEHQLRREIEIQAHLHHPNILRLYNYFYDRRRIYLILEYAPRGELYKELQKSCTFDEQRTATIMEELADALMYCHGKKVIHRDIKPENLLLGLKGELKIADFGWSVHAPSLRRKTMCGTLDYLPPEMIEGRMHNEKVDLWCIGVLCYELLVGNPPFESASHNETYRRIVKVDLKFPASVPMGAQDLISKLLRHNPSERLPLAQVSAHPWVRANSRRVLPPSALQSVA
UniProt O00329, whole entry: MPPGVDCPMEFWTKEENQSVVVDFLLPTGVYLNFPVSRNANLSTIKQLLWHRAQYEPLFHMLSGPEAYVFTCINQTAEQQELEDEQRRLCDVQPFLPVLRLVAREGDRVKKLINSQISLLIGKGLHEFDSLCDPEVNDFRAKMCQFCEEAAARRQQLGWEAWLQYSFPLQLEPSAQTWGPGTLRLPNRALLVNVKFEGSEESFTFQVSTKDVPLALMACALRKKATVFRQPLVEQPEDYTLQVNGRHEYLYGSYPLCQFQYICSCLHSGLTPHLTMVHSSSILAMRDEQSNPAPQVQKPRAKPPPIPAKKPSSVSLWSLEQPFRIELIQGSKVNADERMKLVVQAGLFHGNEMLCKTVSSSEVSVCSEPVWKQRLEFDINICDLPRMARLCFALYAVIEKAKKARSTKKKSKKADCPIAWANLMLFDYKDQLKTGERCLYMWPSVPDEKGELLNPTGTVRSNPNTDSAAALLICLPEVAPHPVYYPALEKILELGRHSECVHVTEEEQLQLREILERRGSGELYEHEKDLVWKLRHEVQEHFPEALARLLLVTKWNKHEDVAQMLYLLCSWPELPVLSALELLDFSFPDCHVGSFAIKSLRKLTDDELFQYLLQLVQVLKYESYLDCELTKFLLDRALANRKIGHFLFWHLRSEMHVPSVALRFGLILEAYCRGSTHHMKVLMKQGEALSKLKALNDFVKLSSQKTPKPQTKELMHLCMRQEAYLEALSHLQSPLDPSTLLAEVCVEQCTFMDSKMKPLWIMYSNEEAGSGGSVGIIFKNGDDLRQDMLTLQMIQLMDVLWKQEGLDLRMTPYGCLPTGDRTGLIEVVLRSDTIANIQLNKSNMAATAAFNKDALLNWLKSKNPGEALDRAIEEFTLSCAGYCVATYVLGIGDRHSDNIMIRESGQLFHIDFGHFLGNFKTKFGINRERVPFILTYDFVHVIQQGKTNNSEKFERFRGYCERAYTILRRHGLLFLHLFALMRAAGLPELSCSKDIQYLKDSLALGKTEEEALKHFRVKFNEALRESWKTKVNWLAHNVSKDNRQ
UniProt P06239, whole entry: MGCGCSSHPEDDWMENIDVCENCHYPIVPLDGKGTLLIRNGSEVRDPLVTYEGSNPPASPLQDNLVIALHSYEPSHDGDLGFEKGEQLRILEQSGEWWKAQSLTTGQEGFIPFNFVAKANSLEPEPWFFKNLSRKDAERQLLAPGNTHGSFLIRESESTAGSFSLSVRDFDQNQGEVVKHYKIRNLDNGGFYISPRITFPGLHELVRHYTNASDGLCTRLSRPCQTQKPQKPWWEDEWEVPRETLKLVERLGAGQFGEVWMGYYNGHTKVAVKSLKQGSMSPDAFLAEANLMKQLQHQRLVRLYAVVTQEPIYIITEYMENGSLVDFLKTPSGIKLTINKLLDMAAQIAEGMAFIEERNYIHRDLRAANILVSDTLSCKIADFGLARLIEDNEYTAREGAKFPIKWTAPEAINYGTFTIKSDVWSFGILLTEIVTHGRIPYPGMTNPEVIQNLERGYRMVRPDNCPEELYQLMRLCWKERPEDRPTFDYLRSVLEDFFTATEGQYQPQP
UniProt P27986, whole entry partner: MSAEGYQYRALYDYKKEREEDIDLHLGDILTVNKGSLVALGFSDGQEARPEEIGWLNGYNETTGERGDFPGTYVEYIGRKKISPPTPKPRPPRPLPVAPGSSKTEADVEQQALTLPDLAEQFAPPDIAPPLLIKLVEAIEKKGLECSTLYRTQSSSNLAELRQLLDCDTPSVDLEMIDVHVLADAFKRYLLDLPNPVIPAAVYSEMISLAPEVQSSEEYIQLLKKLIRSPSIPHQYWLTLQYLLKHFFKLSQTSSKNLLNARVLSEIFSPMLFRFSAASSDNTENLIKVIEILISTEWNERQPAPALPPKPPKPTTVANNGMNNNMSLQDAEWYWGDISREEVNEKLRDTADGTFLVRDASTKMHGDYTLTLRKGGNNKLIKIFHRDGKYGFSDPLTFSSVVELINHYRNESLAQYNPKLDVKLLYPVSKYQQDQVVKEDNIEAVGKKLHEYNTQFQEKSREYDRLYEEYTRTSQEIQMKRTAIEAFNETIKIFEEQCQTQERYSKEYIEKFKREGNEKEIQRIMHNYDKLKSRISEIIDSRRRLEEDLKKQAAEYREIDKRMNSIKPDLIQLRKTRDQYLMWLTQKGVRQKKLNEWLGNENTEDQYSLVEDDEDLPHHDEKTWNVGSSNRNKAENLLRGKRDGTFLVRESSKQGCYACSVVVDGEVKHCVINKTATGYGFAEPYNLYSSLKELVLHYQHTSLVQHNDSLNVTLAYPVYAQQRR

Molecules are shown by their SMILES. Read-outs that look alike come from different tables or passages of the source.

One data set addresses AuroraB (Homo sapiens, UniProt Q96GD4). In words: Preliminary safety test on human AuroraB kinase. The format is biochemical. As to conditions: read-out: AuroraB.
In a further data set the target is PI3KD (Homo sapiens, UniProt O00329). In words: Preliminary safety test on human PI3KD kinase. The format is biochemical. The note with it: read-out: PI3KD.
For a further data set, the system named is HepG2 cells. Put plainly: Cytotoxicity assay (CellTiter-Glo). The class given is cell-based, human. As to conditions: read-out: HepG2; for IC50: HepG2 cytotoxicity. A general note: Cellular ATP, detected with luciferase, serves as a proxy for viable cell number.
The next data set has as its target LCK (Homo sapiens, UniProt P06239). Put plainly: Preliminary safety test on human LCK kinase. The class given is biochemical. The note with it: read-out: LCK.
A short description of a further data set: pKa (ionisation profile). As to conditions: measures the ionisation profile.
The mark [1] stands for this setting: Supplementary Table 2, cytotoxicity.

With `CC(C)(CN1CCCCC1)c1nc(-c2ccnc(N)n2)c(-c2ccc(Cl)c(O)c2)[nH]1`, the IC50 at AuroraB (tested form: HCl) was 7.9 µM; on PI3KD (tested form: HCl), more than 50.1 µM; in the data set with HepG2 cells (tested form: HCl), 31.6 µM; on LCK (tested form: HCl) it was 10 µM.

On to `CNc1c(C(N)=O)c(-c2ccc3scnc3c2)nn1-c1cccc(F)c1`, for which the IC50 is more than 31.6 µM on AuroraB, more than 50.1 µM on PI3KD, more than 100 µM in the data set with HepG2 cells and 2 µM at LCK.

As for `CC(C)(C)Cn1nc(-c2ccc3scnc3c2)c(C(N)=O)c1N`, the IC50 on AuroraB was more than 31.6 µM; at PI3KD, more than 50.1 µM; with HepG2 cells, more than 100 µM; at LCK it was 1.3 µM.

For the compound `CC(CO)Nc1nccc(-c2c(-c3ccccc3)nn3c2COCC3)n1` (centres unmarked), the IC50 on AuroraB was 20 µM; on PI3KD, more than 50.1 µM; with HepG2 cells, more than 100 µM; on LCK it was more than 31.6 µM.

As for `COc1cc(-c2nc(C(C)(C)CN)[nH]c2-c2ccncc2)ccc1Cl`, the IC50 is more than 31.6 µM at AuroraB, more than 50.1 µM at PI3KD, 39.8 µM with HepG2 cells and 1 µM at LCK.

Turning to `FC(F)(F)c1cccc(-c2ncn(CC3CC3)c2-c2ccncc2)c1`, the IC50 on AuroraB is more than 31.6 µM; at PI3KD, more than 50.1 µM; in the data set with HepG2 cells, more than 100 µM; at LCK it was more than 31.6 µM.

Regarding `CC(C)(CNCc1nccs1)c1nc(-c2ccc(Cl)c(O)c2)c(-c2ccncc2)[nH]1`, the IC50 on AuroraB (tested form: HCl) was more than 31.6 µM; on PI3KD (tested form: HCl), more than 50.1 µM; in the data set with HepG2 cells (tested form: HCl) it was 7.9 µM; at LCK (tested form: HCl), 2.5 µM.

Consider `Nc1nccc(-c2sc(N)nc2-c2cccc(NS(=O)(=O)c3c(F)cccc3F)c2F)n1`, for which the IC50 was 0.251 µM on AuroraB, more than 50.1 µM on PI3KD, more than 100 µM in the data set with HepG2 cells and 0.5 µM on LCK.

Consider `COc1ccc(-c2n[nH]cc2-c2ccncn2)cc1`, for which the IC50 is more than 31.6 µM on AuroraB, more than 50.1 µM on PI3KD, more than 100 µM in the data set with HepG2 cells and more than 31.6 µM at LCK.

Turning to `CCC(C)n1nc(-c2ccc(OCC(C)C)cc2)c(C(N)=O)c1NC` (centres unmarked), the IC50 was 7.9 µM at AuroraB, more than 50.1 µM on PI3KD, more than 100 µM with HepG2 cells and 12.6 µM on LCK.

Consider `CCn1nc(-c2ccc3cc(C(O)c4cccnc4)[nH]c3c2)c(C(N)=O)c1NC` (centres unmarked), for which the IC50 on AuroraB is 2 µM; on PI3KD, more than 50.1 µM; in the data set with HepG2 cells, 15.8 µM; on LCK, 2 µM.

Regarding `CC(C)(NC(=O)c1cccnc1)c1nc(-c2ccc(Cl)c(O)c2)c(-c2ccncc2)[nH]1`, the IC50 was more than 31.6 µM at AuroraB (tested form: HCl), more than 50.1 µM on PI3KD (tested form: HCl), 31.6 µM in the data set with HepG2 cells (tested form: HCl) and 12.6 µM at LCK (tested form: HCl).

`c1cncc(-c2n[nH]cc2-c2ccncc2)c1`: the IC50 was 25.1 µM at AuroraB, more than 50.1 µM on PI3KD, more than 100 µM in the data set with HepG2 cells and more than 31.6 µM at LCK.

As for `CNc1nccc(-c2c(-c3ccc(F)cc3)ncn2[C@H](CO)CC(C)C)n1`, the IC50 on AuroraB is 25.1 µM; on PI3KD, more than 50.1 µM; in the data set on HepG2 cells, more than 100 µM; at LCK, 15.8 µM.

As for `COCCN1CCC(CNCC(C)(C)c2nc(-c3ccc(Cl)c(O)c3)c(-c3ccncc3)[nH]2)CC1`, the IC50 at AuroraB (tested form: HCl) is more than 31.6 µM; at PI3KD (tested form: HCl), more than 50.1 µM; in the data set on HepG2 cells (tested form: HCl) it was 31.6 µM; at LCK (tested form: HCl), 4 µM.

In the case of `CC(C)(C(=O)N1CCCC1)c1nc(-c2ccc(Cl)c(Cl)c2)c(-c2ccncc2)[nH]1`, the IC50 on AuroraB (tested form: HCl) was more than 31.6 µM; at PI3KD (tested form: HCl), more than 50.1 µM; in the data set on HepG2 cells (tested form: HCl), 31.6 µM; at LCK (tested form: HCl), 3.2 µM.

For `O=C(O)c1cccc(-c2nn3ccccc3c2-c2ccncc2)c1`, the IC50 on AuroraB is more than 31.6 µM; at PI3KD, more than 50.1 µM; in the data set with HepG2 cells it was more than 100 µM; on LCK it was more than 31.6 µM.

On to `N#Cc1ccc(-c2nc(-c3ccncc3)c(-c3ccncc3)[nH]2)cc1`, for which the IC50 is more than 31.6 µM on AuroraB, more than 50.1 µM at PI3KD, more than 100 µM in the data set with HepG2 cells and more than 31.6 µM on LCK.

Regarding `CC(C)(NS(C)(=O)=O)c1nc(-c2ccc(Cl)c(O)c2)c(-c2ccncc2)[nH]1`, the IC50 on AuroraB (tested form: HCl) was more than 31.6 µM; on PI3KD (tested form: HCl), more than 50.1 µM; in the data set on HepG2 cells (tested form: HCl), 10 µM; at LCK (tested form: HCl), 0.6 µM.

Consider `CC(C)CNc1[nH]nc(-c2ccc3scnc3c2)c1C(N)=O`, for which the IC50 at AuroraB was more than 31.6 µM; at PI3KD it was more than 50.1 µM; in the data set with HepG2 cells it was more than 100 µM; on LCK, more than 31.6 µM.

For the compound `Nc1nccc(-c2sc(N3CCNCC3)nc2-c2cccc(NS(=O)(=O)c3ccoc3)c2Cl)n1`, the EC50 was determined as 39.8 µM with HepG2 cells (setting [1]) and 39 µM with HepG2 cells (Table 2, cytotoxicity, 48 h). For the same compound, in “pKa (ionisation profile)”, the pKa came to 8.8.

For `O=C(O)c1ccc(-c2nc(-c3cccc(O)c3)c(-c3ccncc3)[nH]2)cc1`, the IC50 on AuroraB is 12.6 µM; at PI3KD it was more than 50.1 µM; in the data set on HepG2 cells, more than 100 µM; on LCK, 10 µM.

In the case of `CC(C)(CNS(C)(=O)=O)c1nc(-c2ccc(Cl)c(O)c2)c(-c2ccncc2)[nH]1`, the IC50 at AuroraB (tested form: HCl) was 20 µM; at PI3KD (tested form: HCl), more than 50.1 µM; in the data set on HepG2 cells (tested form: HCl), 25.1 µM; on LCK (tested form: HCl), 2 µM.

For the compound `Nc1[nH]nc(-c2ccncc2)c1-c1ccc2c(c1)OCO2`, the IC50 at AuroraB is 15.8 µM; on PI3KD it was more than 50.1 µM; with HepG2 cells it was more than 100 µM; at LCK it was more than 31.6 µM.

With `FC(F)(F)c1cccc(-c2n[nH]cc2-c2ccncc2)c1`, the IC50 is more than 31.6 µM at AuroraB, more than 50.1 µM on PI3KD, more than 100 µM in the data set on HepG2 cells and 20 µM at LCK.

`N#Cc1ccc(-c2nc(-c3ccncc3)c(-c3ccccn3)[nH]2)cc1`: the IC50 on AuroraB is more than 31.6 µM; at PI3KD, more than 50.1 µM; in the data set with HepG2 cells, more than 100 µM; on LCK, more than 31.6 µM.

For the compound `CC(C)(CN)c1nc(-c2ccc(Cl)c(Cl)c2)c(-c2ccncc2)[nH]1`, the IC50 on AuroraB (tested form: HCl) is more than 31.6 µM; on PI3KD (tested form: HCl) it was more than 50.1 µM; in the data set on HepG2 cells (tested form: HCl) it was 50.1 µM; on LCK (tested form: HCl), 5 µM.

Regarding `CC1(c2nc(-c3cccc(NS(=O)(=O)c4ccoc4)c3F)c(-c3ccnc(N)n3)s2)CCNCC1`, the EC50 came to 50.1 µM with HepG2 cells (setting [1]) and 50 µM in the data set on HepG2 cells (Table 2, cytotoxicity, 48 h). This compound also showed a pKa in the data set “pKa (ionisation profile)” of 9.8.

`CC(=O)NCC(C)(C)c1nc(-c2ccc(Cl)c(O)c2)c(-c2ccncc2)[nH]1`: the IC50 at AuroraB (tested form: HCl) was more than 31.6 µM; on PI3KD (tested form: HCl) it was more than 50.1 µM; in the data set on HepG2 cells (tested form: HCl) it was 7.9 µM; on LCK (tested form: HCl), 1.6 µM.

For `COc1ccc(-c2nc(S(=O)(=O)C(C)C)[nH]c2-c2ccncc2)cc1`, the IC50 was more than 31.6 µM at AuroraB, more than 50.1 µM at PI3KD, more than 100 µM with HepG2 cells and 6.3 µM at LCK.

As to `NC(=O)c1c(-c2ccc3c(c2)OCO3)nn(-c2ccc(F)cc2F)c1N`, the IC50 at AuroraB (tested form: TFA) is more than 31.6 µM; on PI3KD (tested form: TFA), more than 50.1 µM; with HepG2 cells (tested form: TFA), more than 100 µM; on LCK (tested form: TFA), 2.5 µM.

On to `NCc1ccc(-c2nc(-c3cc(O)ccc3Br)c(-c3ccncc3)[nH]2)cc1`, for which the IC50 on AuroraB (tested form: HCl) worked out at 15.8 µM; at PI3KD (tested form: HCl), 25.1 µM; with HepG2 cells (tested form: HCl), 12.6 µM; on LCK (tested form: HCl), 3.2 µM.

Take `OCc1ccn2nc(-c3ccc(F)cc3)c(-c3ccncc3)c2c1`: the IC50 on AuroraB was more than 31.6 µM; on PI3KD it was more than 50.1 µM; with HepG2 cells, more than 100 µM; on LCK it was 25.1 µM.

Take `Nc1nccc(-c2[nH]c(C3CCOCC3)nc2-c2cccc(NS(=O)(=O)c3ccoc3)c2F)n1`: the IC50 on AuroraB is 1 µM; on PI3KD, more than 50.1 µM; with HepG2 cells, 63.1 µM; on LCK, 0.316 µM.

Consider `CC(C)c1nc(-c2cccc(C(F)(F)F)c2)c(-c2ccnc(NCCO)n2)[nH]1`, for which the IC50 was more than 31.6 µM on AuroraB, more than 50.1 µM at PI3KD, more than 100 µM in the data set with HepG2 cells and more than 31.6 µM at LCK.

Consider `CC(C)(C)n1nc(-c2ccc3cc[nH]c3c2)c(C(N)=O)c1N`, for which the IC50 is 15.8 µM at AuroraB, more than 50.1 µM at PI3KD, 79.4 µM with HepG2 cells and 1.3 µM on LCK.

As to `COc1ccc(-c2nn(C(C)(C)C)c(N)c2C(N)=O)cc1`, the IC50 on AuroraB (tested form: TFA) was 25.1 µM; on PI3KD (tested form: TFA), more than 50.1 µM; with HepG2 cells (tested form: TFA), more than 100 µM; on LCK (tested form: TFA) it was 1 µM.

Take `Nc1nccc(-c2sc(C3CCNCC3)nc2-c2cccc(NS(=O)(=O)c3ccoc3)c2F)n1`: the EC50 with HepG2 cells (setting [1]) was 79.4 µM; in the data set on HepG2 cells (Table 2, cytotoxicity, 48 h) it was 79 µM. The compound also showed a pKa in “pKa (ionisation profile)” of 9.8.

What is called pKa is the negative logarithm of the acid dissociation constant. High values mean a weaker acid or stronger base, low ones a stronger acid or weaker base.
